Experiments:
[1] = biological target: human FXR:retinoid X receptor (RXR) heterodimer (Homo sapiens, UniProt Q96RI1); test: Full-length FXR reporter gene assay (BSEP response element) in HeLa cells; settings: mean ± SEM, n = 3; for max. rel. act. FXR: relative to GW4064 at 3 µM
[2] = biological target: human PPARα ligand-binding domain (Gal4 chimera) (Homo sapiens, UniProt Q07869); test: Gal4 hybrid reporter gene assay, PPARα; settings: mean ± SEM, n = 3; for EC50: read-out: EC50 [μM] PPARα
Method: (§1) […] . Activity on PPARs was determined in hybrid reporter gene assays in HEK293T cells using chimeric receptors composed of the respective human PPAR subtype ligand-binding domain (LBD) and the DNA-binding domain of the yeast protein Gal4. A Gal4 inducible firefly luciferase construct served as reporter gene. FXR activation was determined in a full-length reporter gene assay in HeLa cells in which the firefly luciferase reporter was under the control of the FXR response element (RE) from the promoter region of human bile salt export protein (BSEP). This RE requires the entire human FXR:retinoid X receptor (RXR) heterodimer, and thus FXR and RXRα were overexpressed for the assay system. In both assays, a constitutively expressed renilla luciferase was co-transfected to serve for normalization of transfection efficiency and to observe test compound toxicity. […] .
(§2) For the hybrid reporter gene assays, the previously reported Gal4-fusion receptor plasmids pFA-CMV-hPPARα-LBD[29], pFA-CMV-hPPARδ-LBD[29], pFA-CMV-hPPARγ-LBD[29], pFA-CMV-hLXRα-LBD[30], pFA-CMV-hLXRβ-LBD[30], pFA-CMV-hRXRα-LBD[31], pFA-CMV-hRXRβ-LBD[31], pFA-CMV-hRXRγ-LBD[31], pFA-CMV-hRARα-LBD[31], pFA-CMV-hRARβ-LBD[31], pFA-CMV-hRARγ-LBD[31], pFA-CMV-hVDR-LBD[31], and pFA-CMV-hCAR-LBD[31] coding for the hinge region and LBD of the canonical isoform of the respective nuclear receptor were used. pFR-Luc (Stratagene) was used as reporter plasmid for Gal4 hybrid reporter gene assays. pcDNA3-hFXR[32] and pSG5-hRXR[33] served for receptor overexpression in the full-length FXR assay and pGL3basic (Promega Corporation, Fitchburg, WI, USA) with a shortened construct of the BSEP promoter cloned into the SacI/NheI cleavage site in front of the luciferase gene[34] was used as reporter. PPRE-pGL3[35] contains the human full-length PPRE (cloned into the SacI/NheI cleavage site in front of the luciferase gene) and was used as reporter plasmid for the full-length PPRE reporter gene assay. pRL-SV40 (Promega) was used in all assays for normalization of transfection efficiency and cell growth.
(§3) HEK293T cells (German Collection of Microorganisms and Cell Cultures, DSMZ) were used for the Gal4 hybrid reporter gene assays and the PPRE assay. HEK293T cells were grown in Dulbecco’s modified Eagle’s medium (DMEM) high glucose, supplemented with 10% fetal serum bovine (FCS), sodium pyruvate (1 mM), penicillin (100 U/mL), and streptomycin (100 μg/mL) at 37 °C and 5% CO2. The day before transfection, HEK293T cells were seeded in 96-well plates (3 × 10^4 cells/well). Before transfection, medium was changed to Opti-MEM without supplements. Transient transfection was carried out using Lipofectamine LTX reagent (Invitrogen) according to the manufacturer’s protocol with pFR-Luc (Stratagene), pRL-SV40 (Promega), and the corresponding Gal4-fusion nuclear receptor plasmid. Five hours after transfection, medium was changed to Opti-MEM supplemented with penicillin (100 U/mL), streptomycin (100 μg/mL), and now additionally containing 0.1% DMSO and the respective test compound or 0.1% DMSO alone as untreated control. Each concentration was tested in duplicates, and each experiment was repeated in at least three biologically independent repeats. Following overnight (12–14 h) incubation with the test compounds, cells were assayed for luciferase activity using Dual-Glo™ Luciferase Assay System (Promega) according to the manufacturer’s protocol. […]

Chains of the proteins cited; added tags and fusions are not shown. Lines headed by an entry give the natural chain unless they say otherwise; changes in a name come on top. Residues count along the entry.
UniProt Q96RI1, whole entry: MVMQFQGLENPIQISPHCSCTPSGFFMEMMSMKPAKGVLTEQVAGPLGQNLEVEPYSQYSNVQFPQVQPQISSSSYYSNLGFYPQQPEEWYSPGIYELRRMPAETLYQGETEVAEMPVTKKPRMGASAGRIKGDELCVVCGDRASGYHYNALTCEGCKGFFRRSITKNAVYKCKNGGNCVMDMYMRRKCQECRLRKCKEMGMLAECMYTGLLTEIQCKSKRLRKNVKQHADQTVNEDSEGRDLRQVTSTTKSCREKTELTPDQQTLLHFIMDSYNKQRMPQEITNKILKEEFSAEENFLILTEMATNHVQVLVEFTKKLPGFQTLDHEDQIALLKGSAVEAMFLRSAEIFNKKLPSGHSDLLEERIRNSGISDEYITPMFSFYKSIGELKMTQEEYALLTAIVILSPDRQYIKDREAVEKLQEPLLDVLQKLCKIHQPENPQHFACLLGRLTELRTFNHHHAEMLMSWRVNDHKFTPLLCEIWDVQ
UniProt Q07869, 239-466 limits assumed, stated change not applied: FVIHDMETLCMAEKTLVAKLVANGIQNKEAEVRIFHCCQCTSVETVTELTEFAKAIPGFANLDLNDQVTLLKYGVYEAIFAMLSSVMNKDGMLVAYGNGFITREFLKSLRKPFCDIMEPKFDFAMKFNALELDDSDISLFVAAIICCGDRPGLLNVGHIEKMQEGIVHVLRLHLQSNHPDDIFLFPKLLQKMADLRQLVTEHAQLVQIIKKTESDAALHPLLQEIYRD
UniProt Q03181, 211-439 limits assumed, stated change not applied: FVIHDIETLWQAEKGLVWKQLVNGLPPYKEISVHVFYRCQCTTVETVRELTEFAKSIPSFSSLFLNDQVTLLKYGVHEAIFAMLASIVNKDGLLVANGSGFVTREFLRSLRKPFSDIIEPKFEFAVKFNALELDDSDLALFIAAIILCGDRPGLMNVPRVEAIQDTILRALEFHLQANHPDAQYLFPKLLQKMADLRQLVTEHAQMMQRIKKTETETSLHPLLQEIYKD
UniProt P19793, whole entry partner: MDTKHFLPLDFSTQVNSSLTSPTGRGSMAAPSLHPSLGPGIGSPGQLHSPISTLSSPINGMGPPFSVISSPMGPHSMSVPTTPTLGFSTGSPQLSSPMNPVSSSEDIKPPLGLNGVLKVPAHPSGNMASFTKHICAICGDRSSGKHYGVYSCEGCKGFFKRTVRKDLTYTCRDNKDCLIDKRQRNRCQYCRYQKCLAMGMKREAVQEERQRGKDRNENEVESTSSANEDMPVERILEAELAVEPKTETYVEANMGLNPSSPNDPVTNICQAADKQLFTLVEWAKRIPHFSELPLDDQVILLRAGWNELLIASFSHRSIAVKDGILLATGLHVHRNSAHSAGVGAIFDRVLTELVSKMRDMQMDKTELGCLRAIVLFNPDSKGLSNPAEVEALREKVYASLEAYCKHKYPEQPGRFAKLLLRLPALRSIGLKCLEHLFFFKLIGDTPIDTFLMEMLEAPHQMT

[3] = biological target: human PPARδ ligand-binding domain (Gal4 chimera) (Homo sapiens, UniProt Q03181); test: Gal4 hybrid reporter gene assay, PPARδ; settings: mean ± SEM, n = 3; for EC50: read-out: EC50 [μM] PPARδ
[4] = biological target: human PPARγ ligand-binding domain (Gal4 chimera) (Homo sapiens, UniProt P37231); test: Gal4 hybrid reporter gene assay, PPARγ; settings: mean ± SEM, n = 3; for EC50: read-out: EC50 [μM] PPARγ; for max. rel. act. PPARγ: relative to rosiglitazone at 1 µM
Method: as §1, §2
as §3, with “protocol. HeLa cells (DSMZ) were used for the full-length FXR assay and were grown in DMEM high glucose supplemented with 10% FCS, sodium pyruvate (1 mM), penicillin (100 U/mL), and streptomycin (100 μg/mL) at 37 °C and 5% CO2. Twenty-four hours before transfection, cells were seeded in 96-well plates with a density of 8000 cells per well. Three and a half hours before transfection, medium was changed to DMEM high glucose, supplemented with sodium pyruvate (1 mM), penicillin (100 U/mL), streptomycin (100 μg/mL), and 0.5% charcoal-stripped FCS.” for “protocol.”

| SMILES | max. rel. act. FXR [1] [%] | EC50 ([2]; HEK293T) [µM] | EC50 ([3]; HEK293T) [µM] | EC50 ([4]; HEK293T) [µM] | max. rel. act. PPARγ [4] [%] | max. rel. act. PPARα ([2]; relative to GW7647 at 1 µM) [%] | max. rel. act. PPARδ ([3]; relative to L165,041 at 1 µM) [%] | EC50 ([1]; read-out: EC50 [μM] FXR, HeLa) [µM] | EC50 [μM] PPARα ([2]; HEK293T) | EC50 [μM] PPARδ ([3]; HEK293T) | EC50 [μM] PPARγ ([4]; HEK293T) |
| --- | --- | --- | --- | --- | --- | --- | --- | --- | --- | --- | --- |
| O=C(O)Cc1ccc(NC(=O)c2ccccc2NC(=O)c2ccc3ccccc3c2)cc1 | 9.8 ± 0.4 | > 30 | > 30 | > 30 |  |  |  |  |  |  |  |
| O=C(O)c1ccc(NC(=O)c2ccccc2NC(=O)c2ccc3ccccc3c2)cc1 | 23 ± 1 | > 30 | > 30 | 4.4 | 18 ± 2 |  |  |  |  |  |  |
| O=C(O)c1cccc(NC(=O)c2ccccc2NC(=O)c2ccc3ccccc3c2)c1 | 37 ± 1 | 0.15 | 1.3 | 1.6 | 17 ± 1 | 11 ± 1 | 14 ± 1 |  |  |  |  |
| O=C(Nc1ccccc1C(=O)Nc1ccccc1C(=O)O)c1ccc2ccccc2c1 | 44 ± 3 |  |  |  |  |  |  | 7 | tox. | tox. | tox. |

— paper PMC9814779, “A triple farnesoid X receptor and peroxisome proliferator-activated receptor α/δ activator reverses hepatic fibrosis in diet-induced NASH in mice” (Communications Chemistry, 2020)
